Patent publication US6541486B1, “Bis-benzimidazole compounds and analogs thereof for inhibiting cell death” (Elan Pharma International Ltd., priority 1999, dated 2003)
Like-named read-outs stand apart in the source and are kept apart here.

System: Oxygen/Glucose Deprived RGCs (retinal ganglion cells)
Test: Protection of oxygen/glucose deprived (OGD) retinal ganglion cells, EC50
Details: read-out: EC50 (concentration at which 50% of cells are protected from cell death relative to control)

Row | SMILES | EC50 (OGD RGCs, compound from 30 min prior to OGD, during OGD and 24 and 48 h after) | EC50 (Rattus norvegicus)
1 | Cc1nc(-c2nc(C)c(C)[nH]2)[nH]c1C [SNX 939, 2,2′-bis(4,5-dimethylimidazole)] | 3.8 nM | 
2 | NC(c1ncc[nH]1)c1ncc[nH]1 [SNX 949, 2,2′-(aminomethylene)bisimidazole] |  | 0.19 nM
3 | N#CCc1nc2ccccc2[nH]1 [SNX 914, 2-(cyanomethyl)benzimidazole] |  | 18 nM
4 | O=[N+]([O-])Cc1nc2ccccc2[nH]1 [SNX 953, 2-(nitromethyl)benzimidazole] |  | 0.4 nM
5 | O=C(c1ncc[nH]1)c1ncc[nH]1 [SNX 951, di(imidazol-2-yl)methanone] |  | 0.21 nM
6 | c1ccc2[nH]c(CC3=NCCN3)nc2c1 [SNX 978, 2-(4,5-dihydroimidazol-2-yl)methyl benzimidazole] |  | 0.03 nM
